Experimental data: ChEMBL document CHEMBL4616673 (J Med Chem, 2020)

Assay: Tmax in Sprague-Dawley rat at 5 mg/kg, iv by LC-MS analysis
Type: ADME, organism-based
Details: in vivo

For `O=C1c2ccccc2C(=O)c2c1nnn2-c1cc(F)c(-c2ccccc2F)c(F)c1`, the Tmax was 4.8 min.
